Here are results for one substance from patent US9821070B2 (OPKO Biologics Ltd., priority 2012, dated 2017).

Sequences of proteins named here, by UniProt entry; tags and fusion partners are left off. Residues count along the entry.
UniProt P47871, 26-477: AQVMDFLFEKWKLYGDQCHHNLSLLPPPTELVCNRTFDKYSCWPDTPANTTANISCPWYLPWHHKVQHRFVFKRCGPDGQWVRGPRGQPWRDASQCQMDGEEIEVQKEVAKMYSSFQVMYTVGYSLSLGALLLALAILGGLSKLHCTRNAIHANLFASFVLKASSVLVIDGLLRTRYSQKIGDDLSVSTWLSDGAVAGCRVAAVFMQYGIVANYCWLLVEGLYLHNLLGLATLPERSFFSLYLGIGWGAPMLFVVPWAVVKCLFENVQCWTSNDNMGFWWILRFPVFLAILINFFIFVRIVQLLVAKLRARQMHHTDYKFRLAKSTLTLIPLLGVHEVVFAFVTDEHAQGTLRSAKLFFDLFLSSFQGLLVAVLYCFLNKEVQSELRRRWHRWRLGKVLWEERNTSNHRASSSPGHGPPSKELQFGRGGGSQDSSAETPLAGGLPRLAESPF

The target of the experiment is glucagon receptor (Homo sapiens, UniProt P47871). To be noted: cAMP Hunter CHO-K1 GCGR.

Take Oxyntomodulin [OXM]: the “higher glucagon receptor binding activation compared to the heterogeneous PEG30-FMS-OXM” value stood at 11.1 fold.
